Counter-ions that a name gives are not always drawn.

Protein sequences, listed by entry. Tags and fused reporters are not part of them.
UniProt P23975, whole entry: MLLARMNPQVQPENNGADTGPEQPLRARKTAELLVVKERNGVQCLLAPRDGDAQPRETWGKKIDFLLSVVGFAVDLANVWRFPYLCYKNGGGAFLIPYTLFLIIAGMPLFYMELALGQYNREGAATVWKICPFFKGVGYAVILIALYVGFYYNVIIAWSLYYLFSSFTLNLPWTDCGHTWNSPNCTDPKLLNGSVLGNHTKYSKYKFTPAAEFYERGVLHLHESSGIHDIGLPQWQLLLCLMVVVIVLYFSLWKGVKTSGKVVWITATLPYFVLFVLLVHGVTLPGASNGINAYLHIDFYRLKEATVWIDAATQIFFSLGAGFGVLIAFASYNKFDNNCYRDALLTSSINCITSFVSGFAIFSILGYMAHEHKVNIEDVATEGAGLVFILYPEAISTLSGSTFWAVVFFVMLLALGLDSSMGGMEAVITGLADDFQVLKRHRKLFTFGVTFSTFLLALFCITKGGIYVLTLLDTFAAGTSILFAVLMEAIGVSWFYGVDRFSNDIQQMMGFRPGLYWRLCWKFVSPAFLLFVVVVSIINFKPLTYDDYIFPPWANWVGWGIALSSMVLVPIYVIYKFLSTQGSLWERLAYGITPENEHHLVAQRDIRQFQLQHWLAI
UniProt Q01959, whole entry, looked up: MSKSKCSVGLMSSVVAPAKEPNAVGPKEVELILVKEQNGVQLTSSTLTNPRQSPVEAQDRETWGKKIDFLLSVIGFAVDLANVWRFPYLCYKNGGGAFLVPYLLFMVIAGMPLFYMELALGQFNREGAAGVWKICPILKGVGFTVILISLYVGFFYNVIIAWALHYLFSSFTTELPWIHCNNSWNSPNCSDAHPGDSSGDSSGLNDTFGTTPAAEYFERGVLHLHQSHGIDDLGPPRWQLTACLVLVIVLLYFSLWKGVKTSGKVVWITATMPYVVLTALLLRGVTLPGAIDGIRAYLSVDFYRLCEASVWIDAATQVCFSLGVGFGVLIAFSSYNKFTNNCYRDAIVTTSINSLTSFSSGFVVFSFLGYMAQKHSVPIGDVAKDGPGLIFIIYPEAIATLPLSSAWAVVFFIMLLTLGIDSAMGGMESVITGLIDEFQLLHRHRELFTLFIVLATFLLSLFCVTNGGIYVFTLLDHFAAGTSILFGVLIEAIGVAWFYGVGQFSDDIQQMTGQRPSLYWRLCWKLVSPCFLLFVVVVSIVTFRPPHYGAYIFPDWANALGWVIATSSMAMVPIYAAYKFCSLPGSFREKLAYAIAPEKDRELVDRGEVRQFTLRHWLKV

The target of one assay is NET (Homo sapiens, UniProt P23975). The assay can be described thus: Primary binding assay, NET binding ([3H] Nisoxetine). To be noted: for inhibition at 0.1 µM: read-out: % inhibition at 100 nM concentration of test compound, NET.
In another assay the target is DAT (Homo sapiens, UniProt Q01959). In words: biochemical. The class given is binding.

For the compound `COc1cccc2cc(C3CN(C)Cc4ccccc43)oc12` (single isomer, unassigned), at NET, the inhibitory constant (Ki) (usually the dissociation constant of the complex between target and ligand, obtained from inhibition or displacement) came out at 22 nM.
As for `CN1Cc2cc(-c3cnccn3)ccc2C(c2cc3ccccc3s2)C1` (racemic) [Example 71, (±)-4-(benzo[b]thiophen-2-yl)-2-methyl-7-(pyrazin-2-yl)-1,2,3,4-tetrahydroisoquinoline], at NET, the inhibition at 0.1 µM is 75%.
Consider `CN1Cc2ccccc2C(c2cc(Cl)c3[nH]ncc3c2)C1` (single isomer, unassigned; (-)) [Example 125, (−)-4-(7-chloro-1H-indazol-5-yl)-2-methyl-1,2,3,4-tetrahydoisoquinoline, maleate salt], for which, on NET, the affinity corresponds to a Ki of 2.6 nM.
As to `CN1Cc2cc(-c3cncnc3)ccc2C(c2cc3ccccc3s2)C1` (racemic) [Example 73, (±)-4-(benzo[b]thiophen-2-yl)-2-methyl-7-(pyrimidin-5-yl)-1,2,3,4-tetrahydroisoquinoline], the inhibition at 0.1 µM on NET was determined as 73%.
The compound `Cc1cccc2c1C(c1ccc3ccccc3c1)CN(C)C2` (stereo not shown) [Example 56, 2,5-dimethyl-4-(naphthalen-2-yl)-1,2,3,4-tetrahydroisoquinoline] returned an inhibition constant Ki on NET of 29.3 nM.
For the compound `CN1Cc2cc(CN3CCOCC3)ccc2C(c2cc3ccccc3s2)C1` (single isomer, unassigned) (as salt: maleate), the Ki at DAT was 35.4 nM.
Same read-out and setting: as for `CN1Cc2cc(-c3cccnn3)ccc2C(c2ccc3sccc3c2)C1` (single isomer, unassigned), the figure is 8.5 nM.
